For one molecule, inhibition results are on record in patent US20230381162A1, “TREATMENTS OF ANGIOEDEMA” (KALVISTA PHARMACEUTICALS LIMITED, priority 2020, published 2023).

Sequences of proteins named here, by UniProt entry; tags and fusion partners are left off. Residues count along the entry.
UniProt P03952, 20-390 partner limits assumed: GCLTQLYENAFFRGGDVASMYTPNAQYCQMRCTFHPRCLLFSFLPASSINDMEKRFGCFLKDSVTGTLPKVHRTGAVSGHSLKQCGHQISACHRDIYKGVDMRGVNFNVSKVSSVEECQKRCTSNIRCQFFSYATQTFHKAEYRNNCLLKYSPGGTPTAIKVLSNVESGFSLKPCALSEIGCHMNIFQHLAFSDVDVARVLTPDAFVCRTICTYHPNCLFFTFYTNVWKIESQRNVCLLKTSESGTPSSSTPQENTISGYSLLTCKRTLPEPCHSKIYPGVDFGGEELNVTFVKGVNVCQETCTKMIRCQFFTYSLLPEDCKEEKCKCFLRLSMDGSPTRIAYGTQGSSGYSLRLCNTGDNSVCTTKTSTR
UniProt P03952, 391-638 limits assumed: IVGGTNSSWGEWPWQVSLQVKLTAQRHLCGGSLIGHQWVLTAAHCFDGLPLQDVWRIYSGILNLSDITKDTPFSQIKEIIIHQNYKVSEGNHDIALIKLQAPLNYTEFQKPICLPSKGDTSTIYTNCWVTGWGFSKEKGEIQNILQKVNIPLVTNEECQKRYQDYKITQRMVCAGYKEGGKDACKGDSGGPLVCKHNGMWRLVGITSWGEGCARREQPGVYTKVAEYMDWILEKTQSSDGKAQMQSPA

The assay has as its target plasma kallikrein (Homo sapiens, UniProt P03952). Kind of assay: Phase 1 study: ex vivo PKa catalytic activity in DXS-stimulated undiluted plasma. Set-up: PD measurements were determined in dextran sulfate (DXS) stimulated undiluted plasma using a fluorogenic enzyme assay; from tissue; host or cells: undiluted plasma of healthy adult male volunteers after oral dosing, DXS-stimulated ex vivo. The conditions noted are these: 600 mg tablet, by 30 minutes, fed and fasted state. Here is the method:
PD measurements were determined in dextran sulfate (DXS) stimulated undiluted plasma using a fluorogenic enzyme assay and capillary based HK cleavage immunoassay.
The time until appearance of detectable amidolytic enzyme activity in DXS-stimulated plasma (lag time) was calculated from the catalytic activity assay. The detection sensitivity of the rate of catalytic activity in plasma based on using a Spark (Tecan) fluorimeter is a fluorescence increase to reach 1ΔF unit/sec.

For orientation: inhibition means the change of the read-out against control, counted positive when it falls. A high value points to a response far below the control.

`COCc1nn(Cc2ccc(Cn3ccccc3=O)cc2)cc1C(=O)NCc1nccc(OC)c1F` [compound of Formula A, N-[(3-fluoro-4-methoxypyridin-2-yl)methyl]-3-(methoxymethyl)-1-({4-[(2-oxopyridin-1-yl)methyl]phenyl}methyl)pyrazole-4-carboxamide] displayed an inhibition at 600 mg above 90%.
